# Earlier results as cited in patent US20030099599A1, “Antibiotic spray” (priority 2001, published 2003).
# Settings: tonsil tissue; given as a reason for penicillin failure and relapse
substance,measurement,value
penicillin,antibiotic levels at the site of infection,0.67±0.3 microgr\for gr of tonsil tissue
